Test results from paper PMC5189718 (Journal of the American Chemical Society, 2016).

Amino acid sequences for entries named in this document (tags omitted).
UniProt P35372, whole entry: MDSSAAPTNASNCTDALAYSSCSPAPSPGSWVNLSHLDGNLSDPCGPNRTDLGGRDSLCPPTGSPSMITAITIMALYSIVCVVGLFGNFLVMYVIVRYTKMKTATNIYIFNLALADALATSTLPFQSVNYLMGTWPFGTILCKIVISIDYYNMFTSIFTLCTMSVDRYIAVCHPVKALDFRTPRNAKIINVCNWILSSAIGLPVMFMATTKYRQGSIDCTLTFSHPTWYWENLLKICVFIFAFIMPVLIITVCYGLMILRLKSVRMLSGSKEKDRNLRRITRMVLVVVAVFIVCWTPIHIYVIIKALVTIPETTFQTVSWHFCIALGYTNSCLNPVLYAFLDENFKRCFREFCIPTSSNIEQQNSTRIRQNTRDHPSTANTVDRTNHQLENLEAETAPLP

Biological target: hMOR (Homo sapiens, UniProt P35372)
Assay: β-arrestin recruitment BRET assay at hMOR
Type: cell-based
Details: β-arrestin-2 BRET, in the presence of GRK2

[D-Ala^2, N-Me-Phe^4, Gly-ol^5]-enkephalin [DAMGO, reference compound]
β-arrestin recruitment: robust recruitment of β-arrestin
